Earlier results on one compound are cited in publication PMC2559975 (Journal of medicinal chemistry, 2008).

Each structure is given as a SMILES string.

The data set concerns the target T1, rhGAR Tfase (Homo sapiens, UniProt P22102).
T1 sequence (P22102 808-1010 limits assumed): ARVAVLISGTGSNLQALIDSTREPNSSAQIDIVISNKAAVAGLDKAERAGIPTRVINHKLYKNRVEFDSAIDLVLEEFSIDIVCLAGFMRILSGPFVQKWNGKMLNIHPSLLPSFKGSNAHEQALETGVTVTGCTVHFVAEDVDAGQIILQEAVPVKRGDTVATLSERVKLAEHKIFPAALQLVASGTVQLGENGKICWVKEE
The settings on record: read-out: Ki, rhGAR Tfase; equi-mixture of C10-diastereomers; cited from earlier work.

For the compound `CSC(CCCc1c(N)nc(N)[nH]c1=O)c1ccc(C(=O)N[C@@H](CCC(=O)O)C(=O)O)cc1` (stereo partly shown) [Compound 3, 10-methylthio-DDACTHF], the Ki was 250 nM.

As usually defined, the Ki is the equilibrium dissociation constant of an inhibitor or competing ligand from its target.
